Experimental data reported in ChEMBL document CHEMBL1124741, “Probes for narcotic receptor mediated phenomena. 17. Synthesis and evaluation of a series of trans-3,4-dichloro-N-methyl-N-[2-(1-pyrrolidinyl)cyclohexyl]benzeneacet amide (U50,488) related isothiocyanate derivatives as opioid receptor affinity ligands” (1990).

Protein sequences, listed by entry. Tags and fused reporters are not part of them. Lines headed by an entry give the natural chain unless they say otherwise; changes in a name come on top.
UniProt P41144: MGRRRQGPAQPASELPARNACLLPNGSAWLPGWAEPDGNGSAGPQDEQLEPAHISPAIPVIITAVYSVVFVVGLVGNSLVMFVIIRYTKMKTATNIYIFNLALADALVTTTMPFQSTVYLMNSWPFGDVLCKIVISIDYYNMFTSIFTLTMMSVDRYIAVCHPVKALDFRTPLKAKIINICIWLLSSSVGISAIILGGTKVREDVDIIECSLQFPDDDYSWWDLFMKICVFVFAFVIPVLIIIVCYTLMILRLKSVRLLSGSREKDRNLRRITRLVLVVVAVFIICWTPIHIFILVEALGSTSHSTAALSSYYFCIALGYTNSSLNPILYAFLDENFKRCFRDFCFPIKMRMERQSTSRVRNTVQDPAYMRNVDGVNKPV
UniProt P33535, whole entry, looked up: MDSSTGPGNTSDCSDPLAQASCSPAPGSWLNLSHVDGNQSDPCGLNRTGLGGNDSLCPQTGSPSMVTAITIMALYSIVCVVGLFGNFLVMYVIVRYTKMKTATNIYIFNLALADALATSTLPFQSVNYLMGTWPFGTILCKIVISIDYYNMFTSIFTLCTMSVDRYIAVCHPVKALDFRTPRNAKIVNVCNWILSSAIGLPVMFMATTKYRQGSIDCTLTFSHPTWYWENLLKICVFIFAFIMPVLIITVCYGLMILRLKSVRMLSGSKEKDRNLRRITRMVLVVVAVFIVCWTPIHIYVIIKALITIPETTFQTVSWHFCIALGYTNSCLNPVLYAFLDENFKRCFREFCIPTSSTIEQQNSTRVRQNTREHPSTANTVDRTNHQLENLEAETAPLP
UniProt P34975: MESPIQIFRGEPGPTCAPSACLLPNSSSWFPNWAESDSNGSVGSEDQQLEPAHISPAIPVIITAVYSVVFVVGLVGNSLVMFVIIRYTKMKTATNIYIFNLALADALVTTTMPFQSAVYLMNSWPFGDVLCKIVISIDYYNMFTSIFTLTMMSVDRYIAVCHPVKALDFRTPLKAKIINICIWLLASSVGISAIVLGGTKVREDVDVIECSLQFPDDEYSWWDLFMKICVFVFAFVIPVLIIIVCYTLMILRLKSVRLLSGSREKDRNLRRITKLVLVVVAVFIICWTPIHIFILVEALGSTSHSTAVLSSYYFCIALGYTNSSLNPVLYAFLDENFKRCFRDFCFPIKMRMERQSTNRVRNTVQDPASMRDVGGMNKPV
UniProt P33533, whole entry, looked up: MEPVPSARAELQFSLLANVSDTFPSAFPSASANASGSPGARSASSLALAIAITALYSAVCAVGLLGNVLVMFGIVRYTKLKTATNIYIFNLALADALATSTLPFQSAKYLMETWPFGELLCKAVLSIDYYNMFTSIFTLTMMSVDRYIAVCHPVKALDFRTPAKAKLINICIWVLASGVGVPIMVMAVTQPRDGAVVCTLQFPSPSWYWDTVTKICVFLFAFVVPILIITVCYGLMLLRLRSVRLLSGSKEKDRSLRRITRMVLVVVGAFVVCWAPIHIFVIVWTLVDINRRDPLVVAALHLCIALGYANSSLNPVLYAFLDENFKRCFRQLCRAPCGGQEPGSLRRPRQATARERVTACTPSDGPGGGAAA

Columns and labels:
Details in all cases: concentration not given here
[1] = target: Kappa-type opioid receptor (Cavia porcellus) (UniProt P41144); assay: In vitro inhibition of [3H]U-69593 binding to Opioid receptor kappa 1 of guinea pig brain.
[2] = target: Mu-type opioid receptor (Rattus norvegicus) (UniProt P33535); assay: In vitro inhibitory activity against Opioid receptor mu 1 of rat brain membrane using [3H]FOXY as radioligand.
[3] = target: Kappa-type opioid receptor (Cavia porcellus) (UniProt P41144); assay: In vitro inhibitory activity against Opioid receptor kappa 1 of guinea pig brain using [3H]-BREM as radioligand
[4] = target: Kappa-type opioid receptor (Rattus norvegicus) (UniProt P34975); assay: In vitro inhibitory activity against Opioid receptor kappa 1 of rat brain membrane using [3H]BREM as radioligand.
[5] = target: Delta-type opioid receptor (Rattus norvegicus) (UniProt P33533); assay: In vitro inhibitory activity against Opioid receptor delta 1 of rat brain membrane using [3H]DADLE as radioligand.

SMILES: CN(C(=O)[C@H](N=C=S)c1ccccc1)[C@H]1CCCC[C@@H]1N1CCCC1
- inhibition [1]: 106%
- inhibition [2]: 112%
- inhibition [3]: 99.7%
- inhibition [4]: 95.4%
- inhibition [5]: 94.6%

SMILES: CN(C(=O)[C@@H](N=C=S)c1ccccc1)[C@H]1CCCC[C@@H]1N1CCCC1
- inhibition [1]: < 72.2%
- inhibition [2]: 108%
- inhibition [3]: 96%
- inhibition [4]: 91.2%
- inhibition [5]: 91.6%

SMILES: CN(C(=O)[C@@H](N=C=S)c1ccccc1)[C@@H]1CCCC[C@H]1N1CCCC1
- inhibition [1]: < 119%
- inhibition [2]: 86%
- inhibition [3]: 94.2%
- inhibition [4]: 95.5%
- inhibition [5]: 102%

SMILES: CN(C(=O)[C@H](N=C=S)c1ccccc1)[C@@H]1CCCC[C@H]1N1CCCC1
- inhibition [1]: 108%
- inhibition [2]: < 132%
- inhibition [3]: 101%
- inhibition [4]: 92.7%
- inhibition [5]: 117%
